{"source": "PubChem BioAssay AID504441", "about": "(Broad Institute, 2011)", "note": "The list shows a part of the results, in another mix than the full data. Calls of active or inactive are those of the source. Rule as the data show it: active = inhibition above about 50%; inactive = the rest."}
{"target": "Dual specificity tyrosine-phosphorylation-regulated kinase 1A (Rattus norvegicus) (UniProt Q63470)", "test": "rat Dyrk1A kinase inhibitors, primary screen, biochemical, single point, plate reader (AID 504441);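 also: plate controls were vehicle with enzyme for no effect and no enzyme for full effect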", "conditions": "ADP-Glo luminescence, NFATc1 peptide, at 12.5 µM, hits give high values"}
{"smiles": "CC1=NCCc2c1[nH]c1ccccc21.O=[N+]([O-])c1cc([N+](=O)[O-])c(O)c([N+](=O)[O-])c1", "inhibition": "inactive: 0.41%"}
{"smiles": "O=C(O)c1cccc(Nc2c([N+](=O)[O-])cc([N+](=O)[O-])cc2[N+](=O)[O-])c1", "inhibition": "inactive: 10.3%"}
{"smiles": "Cc1ccc(C)c(NP(C)(=O)Oc2ccccc2)c1", "note": "(stereo not given)", "inhibition": "inactive: -0.589%"}
{"smiles": "CP(=O)(Nc1cccc(Br)c1)Oc1ccccc1", "note": "(stereo not given)", "inhibition": "inactive: -2.2%"}
{"smiles": "Cc1cc(C)cc(OP(C)(=O)Nc2ccccn2)c1", "note": "(stereo not given)", "inhibition": "inactive: 0.892%"}
{"smiles": "CCOC(=O)c1ccc(NP(C)(=O)Oc2cc(C)cc(C)c2)cc1", "note": "(stereo not given)", "inhibition": "inactive: 3.61%"}
{"smiles": "Cc1cc(C)cc(OP(C)(=O)Nc2ccc(C)cc2C)c1", "note": "(stereo not given)", "inhibition": "inactive: 19.9%"}
{"smiles": "COc1ccccc1OP(C)(=O)Nc1cccc(Br)c1", "note": "(stereo not given)", "inhibition": "inactive: 7.72%"}
{"smiles": "Cc1nc2ccc3ccccc3c2s1.O=[N+]([O-])c1cc([N+](=O)[O-])c(O)c([N+](=O)[O-])c1", "inhibition": "inactive: -7.42%"}
{"smiles": "O=[N+]([O-])c1cc([N+](=O)[O-])c(-c2cnn(-c3ccccc3)c2)c([N+](=O)[O-])c1", "inhibition": "inactive: 6.8%"}
{"smiles": "O=[N+]([O-])c1cc([N+](=O)[O-])c(-n2nnc3ccccc32)c([N+](=O)[O-])c1", "inhibition": "inactive: -1.46%"}
{"smiles": "CP(=O)(Nc1ccc(SC(F)(F)F)cc1)Oc1ccccc1", "note": "(stereo not given)", "inhibition": "inactive: -3.16%"}
{"smiles": "CCCOc1ccc(NP(C)(=O)Oc2ccc(Cl)cc2)cc1", "note": "(stereo not given)", "inhibition": "inactive: 1.67%"}
{"smiles": "CN1CCCCC1COC(=O)C1(O)c2ccccc2CCc2ccccc21", "note": "(stereo not given)", "inhibition": "inactive: -1.36%"}
{"smiles": "COc1ccccc1OP(C)(=O)Nc1c(C)cccc1C", "note": "(stereo not given)", "inhibition": "inactive: -1.63%"}
{"smiles": "CCOC(=O)C(CC)C1=NC(C)(C)Cc2ccccc21.O=[N+]([O-])c1cc([N+](=O)[O-])c(O)c([N+](=O)[O-])c1", "note": "(stereo not given)", "inhibition": "inactive: -3.28%"}
{"smiles": "O=[N+]([O-])c1cc([N+](=O)[O-])c(Nc2nnnn2CCO)c([N+](=O)[O-])c1", "inhibition": "inactive: -4.63%"}
{"smiles": "CC1=C2N=C(C=C3N=C(C(C)=C4[N-][C@@](C)([C@@H]5N=C1[C@](C)(CCC(=O)NC[C@@H](C)OP(=O)([O-])O[C@H]1[C@@H](O)[C@@H](n6cnc7cc(C)c(C)cc76)O[C@@H]1CO)[C@H]5CC(N)=O)[C@@](C)(CC(N)=O)[C@@H]4CCC(N)=O)[C@@](C)(CC(N)=O)[C@@H]3CCC(N)=O)C(C)(C)[C@@H]2CCC(N)=O.[C-]#N.[Co+3]", "inhibition": "inactive: 30.8%"}
{"smiles": "CP(=O)(Nc1ccccc1Br)Oc1ccccc1", "note": "(stereo not given)", "inhibition": "inactive: -6.26%"}
{"smiles": "COc1ccccc1OP(C)(=O)Nc1ccccc1", "note": "(stereo not given)", "inhibition": "inactive: -0.316%"}
